According to patent publication US4228187A, “Alkyl and cycloalkylthiophenylalkylaminoalkanols, their salts and the preparation thereof” (priority 1973, dated 1980):

System: peripheral vasodilatatory activity
Experiment: Vasodilatory effect after intraarterial injection in dog
Assay type: in vivo

SMILES: COc1ccc(Cc2nccc3cc(OC)c(OC)cc23)cc1OC [papaverine, reference compound]
- Half-life (of vasodilatory effect) (10 μg/kg): 19 s
- Half-life (of vasodilatory effect) (20 μg/kg): 25 s
- Half-life (of vasodilatory effect) (30 μg/kg): 26 s
